Results reported in patent EP1025114B1, “3'-N-MODIFIED 6-O-SUBSTITUTED ERYTHROMYCIN KETOLIDE DERIVATIVES HAVING ANTIBACTERIAL ACTIVITY” (priority 1997, dated 1999).

System: Streptococcus Pheumoniae 5979
Experiment: In vitro antibacterial activity, agar dilution MIC
Type: cell-based
Conditions: Streptococcus Pheumoniae 5979 (organism code ZZ); BHI agar, 35-37 °C, 20 to 24 hours; unit assumed
Protocol: Representative compounds of the present invention were assayed in vitro for antibacterial activity as follows: Twelve petri dishes containing successive aqueous dilutions of the test compound mixed with 10 mL of sterilized Brain Heart infusion (BHI) agar (Difco 0418-01-5) were prepared. Each plate was inoculated with 1:100 (or 1:10 for slow-growing strains, such as Micrococcus and Streptococcus) dilutions of up to 32 different microorganisms, using a Steers replicator block. The inoculated plates were incubated at 35-37 °C for 20 to 24 hours. In addition, a control plate, using BHI agar containing no test compound, was prepared and incubated at the beginning and end of each test.
An additional plate containing a compound having known susceptibility patterns for the organisms being tested and belonging to the same antibiotic class as the test compound was also prepared and incubated as a further control, as well as to provide test-to-test comparability. Erythromycin A was used for this purpose.
After incubation, each plate was visually inspected. The minimum inhibitory concentration (MIC) was defined as the lowest concentration of drug yielding no growth, a slight haze, or sparsely isolated colonies on the inoculum spot as compared to the growth control.

## CC[C@H]1OC(=O)[C@H](C)[C@@H](O[C@H]2C[C@@](C)(OC)[C@@H](O)[C@H](C)O2)[C@H](C)[C@@H](O[C@@H]2O[C@H](C)C[C@H](N(C)C)[C@H]2O)[C@](C)(O)C[C@@H](C)C(=O)[C@H](C)[C@@H](O)[C@]1(C)O [Ery. A, Erythromycin A, reference compound]
  MIC: > 128 µg/mL
